Test results taken from paper PMC7073924, “2-Aminomethylene-5-sulfonylthiazole Inhibitors of Lysyl Oxidase (LOX) and LOXL2 Show Significant Efficacy in Delaying Tumor Growth” (Journal of Medicinal Chemistry, 2019).
“And” between values parts separate entries of the source, which are not always exact repeats. Equal entries are not always repeated. Structures can show the parent of a compound that is named as a salt.

Biological target: T1, LOXL2 (Homo sapiens, UniProt Q9Y4K0)
T1 sequence (Q9Y4K0 26-774): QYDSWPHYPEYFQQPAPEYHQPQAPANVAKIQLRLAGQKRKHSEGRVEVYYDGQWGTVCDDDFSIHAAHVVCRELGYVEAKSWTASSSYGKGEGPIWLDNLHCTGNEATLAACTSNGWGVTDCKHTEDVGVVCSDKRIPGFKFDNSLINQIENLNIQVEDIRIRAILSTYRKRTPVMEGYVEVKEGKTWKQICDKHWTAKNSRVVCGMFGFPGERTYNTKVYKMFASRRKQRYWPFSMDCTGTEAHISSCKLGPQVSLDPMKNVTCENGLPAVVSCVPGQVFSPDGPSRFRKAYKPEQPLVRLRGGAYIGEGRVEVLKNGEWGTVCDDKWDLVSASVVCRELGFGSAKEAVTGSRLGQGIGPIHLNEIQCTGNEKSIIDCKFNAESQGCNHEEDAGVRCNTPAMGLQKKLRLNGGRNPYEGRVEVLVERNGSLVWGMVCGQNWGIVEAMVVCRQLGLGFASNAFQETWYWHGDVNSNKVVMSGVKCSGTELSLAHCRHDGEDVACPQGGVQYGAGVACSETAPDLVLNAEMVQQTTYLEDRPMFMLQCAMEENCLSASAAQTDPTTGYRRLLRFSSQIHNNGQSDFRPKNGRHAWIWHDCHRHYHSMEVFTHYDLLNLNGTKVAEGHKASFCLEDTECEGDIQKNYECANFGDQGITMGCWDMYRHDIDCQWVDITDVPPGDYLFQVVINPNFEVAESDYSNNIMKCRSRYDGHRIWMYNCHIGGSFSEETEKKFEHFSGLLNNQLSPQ
Test: LOXL2 enzyme assay (Promega ROS-Glo, cadaverine substrate)
Format: biochemical

| Compound | IC50 |
| --- | --- |
| NCc1nc(S(=O)(=O)c2ccc3ccccc3c2)cs1 [Compound 22a, (4-(Naphthalen-2-ylsulfonyl)thiazol-2-yl)methanamine Hydrochloride] | 0.895 µM and 0.828 µM |
| COc1cc(-c2ccccc2)cc(S(=O)(=O)c2cnc(CN)s2)c1 [Compound 7h, (5-((5-Methoxy-[1,1′-biphenyl]-3-yl)sulfonyl)thiazol-2-yl)methanamine Hydrochloride] | 0.27 µM and 0.255 µM |
